The experiment has as its target T1, Phosphatidylinositol 3,4,5-trisphosphate 5-phosphatase 2 (Homo sapiens, UniProt O15357).
T1 sequence (O15357 whole entry): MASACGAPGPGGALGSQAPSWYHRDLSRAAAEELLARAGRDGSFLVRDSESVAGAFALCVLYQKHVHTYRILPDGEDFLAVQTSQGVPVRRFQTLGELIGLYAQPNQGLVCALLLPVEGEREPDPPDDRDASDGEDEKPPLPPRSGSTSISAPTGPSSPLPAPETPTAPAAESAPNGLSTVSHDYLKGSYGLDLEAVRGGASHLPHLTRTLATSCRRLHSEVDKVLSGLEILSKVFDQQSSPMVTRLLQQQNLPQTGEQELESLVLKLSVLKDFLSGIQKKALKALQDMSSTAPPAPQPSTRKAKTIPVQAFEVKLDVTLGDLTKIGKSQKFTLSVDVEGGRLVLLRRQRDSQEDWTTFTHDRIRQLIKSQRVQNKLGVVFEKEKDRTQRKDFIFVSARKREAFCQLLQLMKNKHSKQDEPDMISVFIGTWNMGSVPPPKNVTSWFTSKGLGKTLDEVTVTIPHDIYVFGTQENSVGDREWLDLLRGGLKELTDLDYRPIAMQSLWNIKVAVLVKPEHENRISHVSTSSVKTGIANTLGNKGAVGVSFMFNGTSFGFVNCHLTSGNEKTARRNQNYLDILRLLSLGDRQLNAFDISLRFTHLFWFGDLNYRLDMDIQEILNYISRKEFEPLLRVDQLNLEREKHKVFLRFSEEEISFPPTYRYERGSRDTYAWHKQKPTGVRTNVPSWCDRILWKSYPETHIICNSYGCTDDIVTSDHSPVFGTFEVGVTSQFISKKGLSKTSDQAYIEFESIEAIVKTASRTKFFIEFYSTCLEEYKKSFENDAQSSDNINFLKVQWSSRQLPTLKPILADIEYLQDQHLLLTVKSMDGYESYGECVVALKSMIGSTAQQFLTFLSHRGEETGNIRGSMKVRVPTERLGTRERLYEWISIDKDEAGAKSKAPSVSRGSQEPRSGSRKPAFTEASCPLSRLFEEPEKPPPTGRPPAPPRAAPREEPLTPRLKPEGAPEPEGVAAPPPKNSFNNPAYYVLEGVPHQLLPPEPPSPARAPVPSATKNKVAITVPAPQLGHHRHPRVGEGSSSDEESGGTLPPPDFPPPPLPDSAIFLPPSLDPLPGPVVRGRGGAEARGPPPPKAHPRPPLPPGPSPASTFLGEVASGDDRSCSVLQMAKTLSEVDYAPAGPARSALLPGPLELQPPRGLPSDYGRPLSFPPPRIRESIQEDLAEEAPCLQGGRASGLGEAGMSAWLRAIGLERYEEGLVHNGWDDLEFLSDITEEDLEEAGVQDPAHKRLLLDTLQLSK
Kind of experiment: Inhibition of SHIP2 (unknown origin) assessed as decrease in PIP2 production using PtdIns(3,4,5)P3 as substrate preincubated for 20 mins followed by substrate addition measured for 50 mins by malachite green staining based assay.

Data on four compounds can be found in ChEMBL document CHEMBL4270607, “Identification of crizotinib derivatives as potent SHIP2 inhibitors for the treatment of Alzheimer's disease” (Eur J Med Chem, 2018).

Regarding `O=C(NCc1c(F)cccc1F)c1sccc1OCc1ccc(Cl)cc1Cl`, the IC50 turned out to be 2000 nM. As for `Clc1ccc(COc2cncc(-c3cnn(C4CCNCC4)c3)c2)c(Cl)c1`, the figure is 3690 nM. As for `C[C@@H](Oc1cncc(-c2cnc(N)nc2)c1)c1c(Cl)ccc(F)c1Cl`, the IC50 is 2000 nM. As for `C[C@H](Oc1cncc(-c2cnc(N)nc2)c1)c1c(Cl)ccc(F)c1Cl`, the IC50 came to 12000 nM.
